AlphaSeq binding of Ab-14 light chain variants to a spike HR2 peptide

Target: peptide PDVDLGDISGINAS, taken from heptad repeat 2 (HR2) of SARS-CoV-2 spike.

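These sequences belong to a second round, designed from the earlier measurements on random variants of the parent. Several design methods are mixed in this list. Affinity was read by AlphaSeq, a pooled yeast mating assay with surface-displayed partners. Pairs that bind mate more often; barcode pairs of the diploids are counted by sequencing. Each replicate has its own calibration line, from reference interactions of the BCL2 family. Each pool was mated in six replicate cultures.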

Each scFv is VH, a 15-residue (Gly4Ser)3 linker, VL, as in the parent Ab-14, and differs from it in the CDRs of the light chain only.
VH: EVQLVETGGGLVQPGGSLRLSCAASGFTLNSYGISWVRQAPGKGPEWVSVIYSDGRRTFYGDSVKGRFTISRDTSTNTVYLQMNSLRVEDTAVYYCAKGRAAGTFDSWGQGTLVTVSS
VL: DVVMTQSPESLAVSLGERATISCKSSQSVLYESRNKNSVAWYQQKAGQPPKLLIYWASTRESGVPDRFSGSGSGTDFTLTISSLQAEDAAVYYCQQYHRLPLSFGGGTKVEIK

Each variant is given by its three light chain CDRs, as the data file delimits them; those of the parent are KSSQSVLYESRNKNSVA, WASTRES, QQYHRLPLS. Values are apparent Kd, the geometric mean of the replicates that gave a signal; lower means stronger binding. "nd" means that the variant was in the library but no mating with the target was seen in any replicate; the authors take this as a sign of poor binding, and no number exists. Of ten entries with the parent sequence, four were seen in most replicates (averages 2.2 nM to 240 nM), three in one and three in none, so single entries are noisy. The authors' rule: three or more of the six replicates give a measured affinity, fewer mean a poor binder. Nonspecific signal, from three strains lacking the peptide, appeared in 4% of pairings of all light chain designs, centred on 430 nM (5% of these signals below 38 nM); values are not corrected for it. For each scFv, signals with the empty controls are counted beside the result. The range of this assay differs from that of the first round, and the authors advise against merging the two.

Result 3.8 nM (6 of 6 replicates; controls 3 of 18), variant KLSQSVEYESRNKNSVA, HASTRLS, QQYHRLPLS.
Result 64 nM (5 of 6 replicates; controls 0 of 18), variant TLYGLSVSMSKNKNSVA, EMTTREA, QQYDRLPLI.
Result 1.5 nM (6 of 6 replicates; controls 1 of 18), variant SITQLVGYGQRNKNSVA, QMETREN, QQYDRLPLT.
Result 5.0 nM (6 of 6 replicates; controls 0 of 18), variant LLSQSMLYESRNKNSVA, WASTRAS, NQYHILPLS.
Result 19 nM (6 of 6 replicates; controls 1 of 18), variant KSSQSVLYESRNKNSVA, EASTRWS, QQYHRLPLS.
Result 2.1 nM (6 of 6 replicates; controls 0 of 18), variant KLSQSTLYEQRNTNSVA, QASQRES, QQYHRLPLS.
Result 46 nM (6 of 6 replicates; controls 0 of 18), variant TISQSVNMTSRGKNSVA, QAEMREA, QQYDRLPLS.
Result 100 nM (2 of 6 replicates; controls 0 of 18), variant KPPQSVLYEQRNKNSVA, WASTRES, QQYHRLPLS.
Result 2.4 nM (6 of 6 replicates; controls 0 of 18), variant KVVQSVNGLQRNKNSVA, QASTRES, QQYHRLPLS.
Result 2.3 nM (6 of 6 replicates; controls 0 of 18), variant KSSQSVLYESRNKNSVA, DASLRES, QQYERLPLS.
Result 840 pM (6 of 6 replicates; controls 0 of 18), variant KFPQSTLYESRNKNSVA, NASTRES, QQYHRLPLS.
Result 1.1 nM (6 of 6 replicates; controls 0 of 18), variant WLNAEDQGDDRGMNNIA, GGDTKMA, QQYHRLPLS.
Result 1.6 nM (6 of 6 replicates; controls 1 of 18), variant KLGQMVLTGAYVSNSVA, QMSTRVN, QQYHRLPLM.
Result nd (0 of 6 replicates; controls 0 of 18), variant KVEIFMWTMDNANQHIA, NGAEERP, QQYQRLPLS.
Result 2.7 nM (6 of 6 replicates; controls 1 of 18), variant KISQSWLYEDRVKNSVA, GAQTRES, QQYHRLPLS.
Result 8.5 nM (6 of 6 replicates; controls 0 of 18), variant KVSQCNGYESRMKNSVA, HASQRES, QQYHRLPLS.
Result 37 nM (5 of 6 replicates; controls 0 of 18), variant TIDQYTSYENGENRAIA, DVSIKDY, QQYARLPLL.
Result 6.2 nM (6 of 6 replicates; controls 1 of 18), variant MMGMTVTNQSNMIQNVA, DMNERFA, QQYFQLPLS.
Result 4.7 nM (6 of 6 replicates; controls 3 of 18), variant NIRIEDKSEHNNANNVA, STDCRCD, QQYFMLPLM.
Result 130 nM (5 of 6 replicates; controls 0 of 18), variant KSSQEVLYESRNKNSVA, WASTRES, QQVCRLPLS.
Result 400 pM (6 of 6 replicates; controls 0 of 18), variant KVQQSHLYESRNKNSVA, DASTRES, QQYHRLPLS.
Result 3.3 nM (6 of 6 replicates; controls 0 of 18), variant SSSQSVQYESRNKNSVA, SASTRES, QQYHRLPLS.
Result 15 nM (6 of 6 replicates; controls 0 of 18), variant KIYEMTGYESRNADSIA, DNSTRGR, QQYHRLPLS.
Result 830 pM (6 of 6 replicates; controls 0 of 18), variant KFSPSVLYESRAKNSVA, NASTRES, QQYHRLPLS.
Result 2.8 nM (6 of 6 replicates; controls 0 of 18), variant KLSSVTGHMSQAKNNVA, EMVTREK, QQYNRLPLS.
Result 150 nM (4 of 6 replicates; controls 0 of 18), variant KLHAYTQGFKRADASIA, EISYRAI, QQYGRLPLS.
Result 4.6 nM (6 of 6 replicates; controls 2 of 18), variant KSSISYLPESRNENSVA, EASTREQ, QQYHRLPLS.
Result 4.8 nM (6 of 6 replicates; controls 1 of 18), variant KVSMSVLYESRVKNSVA, EASQRES, QQYHRLPLI.
Result 360 pM (6 of 6 replicates; controls 2 of 18), variant KFSQSVMYESRTKNSVA, NASTRES, QQYHRLPLS.
Result 96 nM (6 of 6 replicates; controls 2 of 18), variant KSSQSVLYESRNKNSVA, AASERED, QQYHRLPLS.
Result 11 nM (6 of 6 replicates; controls 2 of 18), variant KVSQSVLGEQRNKNSVA, DASTRES, QQYHRLPLS.
Result 450 nM (3 of 6 replicates; controls 1 of 18), variant TISQSTYWESFNKNNVA, QTSTRCE, QDYDRLPLS.
Result 950 pM (6 of 6 replicates; controls 0 of 18), variant KMEQSVLYEQKNGNSVA, AASTRES, QQYHRLPLS.
Result 450 pM (6 of 6 replicates; controls 0 of 18), variant KVSQSNLYESRNKNSVA, NASTRES, QQYHRLPLQ.
Result 1.8 nM (6 of 6 replicates; controls 1 of 18), variant KLQWYNTLATYSAQNIA, DGAQRLN, QQYMRLPLM.
Result 980 pM (6 of 6 replicates; controls 1 of 18), variant TISQVMNTLTRNTNNVA, DLTEREK, QQYFRLPLT.
Result 4.5 nM (6 of 6 replicates; controls 1 of 18), variant KIAEQIMHVYIGANAIA, DATVKSA, QQYLRLPLM.
Result nd (0 of 6 replicates; controls 1 of 18), variant KSSQSVLYESRNKNSVA, YASTRES, QQYHRLPLW.
Result 24 nM (6 of 6 replicates; controls 1 of 18), variant KLSGSVLNESRNKNSVA, WASVRES, QQYHRLPLS.
Result 1.8 nM (6 of 6 replicates; controls 3 of 18), variant KQSQSVLYEWRNKNSVA, DASQRES, QQYHRLPLS.
Result 1.6 nM (6 of 6 replicates; controls 5 of 18), variant KLSQSWLYESRNKNSVA, NASQRYS, QQYHRLPLS.
Result 1.2 nM (6 of 6 replicates; controls 0 of 18), variant KISQSVLYESRNKNSVA, AASSRES, QMYHRLPLS.
Result 380 pM (6 of 6 replicates; controls 0 of 18), variant KMPQSQLYESRNKNSVA, NASQRES, QQYHRLPLS.
Result 1.3 nM (6 of 6 replicates; controls 0 of 18), variant KLSQEMLYESRMINSVA, NASQREV, QQYHRLPLS.
Result 1.4 nM (6 of 6 replicates; controls 0 of 18), variant KLQNSFLYESRQKNSVA, EASQREM, QQYHRLPLS.

For reference, 7 entries of the list once more:

CDR-L1,CDR-L2,CDR-L3,Kd (apparent),seen in,control signals
TISQVMNTLTRNTNNVA,DLTEREK,QQYFRLPLT,980 pM,6 of 6,1 of 18
KLSQSVEYESRNKNSVA,HASTRLS,QQYHRLPLS,3.8 nM,6 of 6,3 of 18
KFSPSVLYESRAKNSVA,NASTRES,QQYHRLPLS,830 pM,6 of 6,0 of 18
MMGMTVTNQSNMIQNVA,DMNERFA,QQYFQLPLS,6.2 nM,6 of 6,1 of 18
KLSQSWLYESRNKNSVA,NASQRYS,QQYHRLPLS,1.6 nM,6 of 6,5 of 18
SSSQSVQYESRNKNSVA,SASTRES,QQYHRLPLS,3.3 nM,6 of 6,0 of 18
TLYGLSVSMSKNKNSVA,EMTTREA,QQYDRLPLI,64 nM,5 of 6,0 of 18

Values reported by Li et al. 2023, doi:10.1038/s41467-023-39022-2 (FLAb copy).